PubChem BioAssay AID707 (Columbia University Molecular Screening Center, 2007)
The entries are a selection whose mix differs from that of the whole data set. Calls of active or inactive are those of the source. Cut-off read from the data, not from the text of the source: active = inhibition above about 80%; inactive = the rest.

By UniProt entry, the sequences of proteins in these tests, tags left out.
UniProt P34913, whole entry: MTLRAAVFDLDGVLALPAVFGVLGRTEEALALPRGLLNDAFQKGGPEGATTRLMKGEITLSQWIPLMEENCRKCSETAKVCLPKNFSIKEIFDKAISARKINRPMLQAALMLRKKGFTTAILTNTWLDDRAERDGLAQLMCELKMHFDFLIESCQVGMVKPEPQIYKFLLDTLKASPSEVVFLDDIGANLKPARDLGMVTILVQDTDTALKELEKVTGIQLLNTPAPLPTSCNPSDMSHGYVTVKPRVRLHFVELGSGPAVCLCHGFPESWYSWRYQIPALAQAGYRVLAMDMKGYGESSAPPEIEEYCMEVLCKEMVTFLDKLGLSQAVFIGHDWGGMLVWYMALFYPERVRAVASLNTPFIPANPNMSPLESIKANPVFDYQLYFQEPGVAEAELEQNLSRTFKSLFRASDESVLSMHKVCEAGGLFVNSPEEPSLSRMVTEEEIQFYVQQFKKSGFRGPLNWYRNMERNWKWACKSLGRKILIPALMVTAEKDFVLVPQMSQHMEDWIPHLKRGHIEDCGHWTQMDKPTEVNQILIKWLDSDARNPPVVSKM

biological target: Bifunctional epoxide hydrolase 2 (Homo sapiens) (UniProt P34913); assay: soluble epoxide hydrolase inhibitors, primary screen, biochemical, human sEH (AID 707); conditions: recombinant human sEH enzymatic activity assay; at 2 µM; active compounds read high

Q: How did the inhibition turn out when `Cc1cc(C)cc(OP(C)(=O)Nc2ccc(C)cc2C)c1` (centres undefined) was run?
A: inactive: 35.6%

Q: Which inhibition does the source give for `Cc1cc(C)cc(OP(C)(=O)Nc2ccccn2)c1` (centres undefined) here?
A: inactive: 10.5%

Q: For `Cc1ccc(C)c(NP(C)(=O)Oc2ccccc2)c1` (centres undefined), which inhibition is on record?
A: inactive: -27.8%

Q: `Cc1nc2ccc3ccccc3c2s1.O=[N+]([O-])c1cc([N+](=O)[O-])c(O)c([N+](=O)[O-])c1` was tested. Which inhibition did it give?
A: inactive: 9.5%

Q: Which inhibition does the source give for `COc1ccccc1OP(C)(=O)Nc1c(C)cccc1C` (centres undefined) here?
A: inactive: 8.6%

Q: For `CP(=S)(Nn1cnnc1)Oc1ccccc1` (centres undefined), which inhibition is on record?
A: inactive: -1%

Q: For `CP(=O)(NC(=O)Nc1ccccc1)Oc1ccccc1` (centres undefined), which inhibition is on record?
A: inactive: -5.4%

Q: For `CP(=O)(Nc1ccccn1)Oc1ccc(Cl)cc1` (centres undefined), which inhibition is on record?
A: inactive: 0.9%

Q: How did the inhibition turn out when `COc1ccc(OP(C)(=O)Nc2cccc(F)c2)cc1` (centres undefined) was run?
A: inactive: -0.3%

Q: `COc1ccccc1OP(C)(=O)Nc1ccc(C)c(C)c1` (centres undefined) was tested. Which inhibition did it give?
A: inactive: -5.4%

Q: Which inhibition does the source give for `Cc1nc2ccc3ccccc3c2o1.O=[N+]([O-])c1cc([N+](=O)[O-])c(O)c([N+](=O)[O-])c1` here?
A: inactive: -6.6%

Q: Which inhibition does the source give for `CN(C)CCOC(=O)C(O)(c1ccccc1)C1CCCC1` (centres undefined) here?
A: inactive: -20.4%

Q: How did the inhibition turn out when `COc1ccc(OP(C)(=O)Nc2ccccn2)cc1` (centres undefined) was run?
A: inactive: -5.2%

Q: Which inhibition does the source give for `Cc1c(NP(C)(=O)Oc2ccc(C(C)C)cc2)c(=O)n(-c2ccccc2)n1C` (centres undefined) here?
A: inactive: 10%

Q: Which inhibition does the source give for `CCc1ccc(OP(C)(=O)O)cc1` here?
A: inactive: 5.3%

Q: How did the inhibition turn out when `CP(=O)(Nc1ccccn1)Oc1ccccc1` (centres undefined) was run?
A: inactive: 5.5%

Q: Which inhibition does the source give for `CCN(CC)CC(O)COC(=O)C(O)(c1ccccc1)C1CCCCC1` (centres undefined) here?
A: inactive: -14.2%

Q: How did the inhibition turn out when `CP(=O)(Oc1ccccc1)N1CCOC1=O` (centres undefined) was run?
A: inactive: -5.5%

Q: How did the inhibition turn out when `COc1ccccc1OP(C)(=O)Nc1c(C)n(C)n(-c2ccccc2)c1=O` (centres undefined) was run?
A: inactive: 3.4%

Q: Which inhibition does the source give for `CP(=O)(Nc1ccc(Cl)cc1)Oc1ccc(F)cc1` (centres undefined) here?
A: inactive: 7.3%

Q: For `CC(C)(C)c1ccc(OP(C)(=O)O)cc1`, which inhibition is on record?
A: inactive: 5%

Q: How did the inhibition turn out when `CP(=O)(OC12CC3CC(CC(C3)C1)C2)OC12CC3CC(CC(C3)C1)C2` was run?
A: inactive: -14.1%

Q: Which inhibition does the source give for `COc1ccc(OP(C)(=O)Nc2cccc(Br)c2)cc1` (centres undefined) here?
A: inactive: 4.9%

Q: For `CN(C)CCOC(=O)C(O)(c1ccccc1)C1CCCCC1` (centres undefined), which inhibition is on record?
A: inactive: 15.4%

Q: `CCOP(C)(=S)SCC(=O)NC(C)(CC)C(=O)O` (centres undefined) was tested. Which inhibition did it give?
A: inactive: -1.4%

Q: `CP(=O)(Nc1ccc2c(c1)OCCO2)Oc1ccccc1` (centres undefined) was tested. Which inhibition did it give?
A: inactive: 1.1%

Q: `CP(=O)(Nc1ccccc1F)Oc1ccccc1` (centres undefined) was tested. Which inhibition did it give?
A: inactive: 0.2%

Q: For `CCN(CC)CCCOC(=O)C(O)(c1ccccc1)C1CCCCC1` (centres undefined), which inhibition is on record?
A: inactive: 4%

Q: How did the inhibition turn out when `CP(=O)(Nc1ccccc1)Oc1ccc(F)cc1` (centres undefined) was run?
A: inactive: -11.2%
